Measured affinities in a library of Ab-14 light chain variants

Target peptide (SARS-CoV-2 spike, HR2 region): PDVDLGDISGINAS

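The starting antibody came from a phage panning campaign against this peptide. These sequences belong to a second round, designed from the earlier measurements on random variants of the parent. Their group label is 14L_Ctrl (Ctrl: baseline library sampled from a position-specific scoring matrix, with some repeated check sequences). AlphaSeq pools MATa yeast showing the antibodies with MATalpha yeast showing the peptide. Binding brings cells together so that they mate, and sequencing counts the barcode pairs among the diploids. The ratio of observed to expected reads was calibrated, replicate by replicate, on BCL2-family standards whose Kd was known from biolayer interferometry. The assay was run in six technical replicates.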

Each scFv is VH, three GGGGS repeats, VL, as in the parent Ab-14, and differs from it in the CDRs of the light chain only.
VH: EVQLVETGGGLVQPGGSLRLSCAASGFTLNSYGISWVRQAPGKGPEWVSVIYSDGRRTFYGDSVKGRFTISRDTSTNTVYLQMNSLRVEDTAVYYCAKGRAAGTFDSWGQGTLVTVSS
VL: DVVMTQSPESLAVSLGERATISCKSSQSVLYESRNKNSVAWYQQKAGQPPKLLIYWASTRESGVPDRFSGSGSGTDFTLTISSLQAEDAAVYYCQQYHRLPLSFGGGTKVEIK

Positions count from residue 1 of the parent VL; S25L puts L in place of S. Scale: log10 of Kd in nM, estimated from mating counts; low values are strong binders. "nd" means that the variant was in the library but no mating with the target was seen in that replicate; the authors take this as a sign of poor binding, and no number exists. Empty control strains, which show no peptide, gave a signal in 4% of pairings with all light chain designs; the median was 2.64 and 95% of these signals were weaker than 1.59. No background was subtracted. The control count says in how many pairings with the empty strains this scFv gave a signal, with their mean in brackets. The authors' rule: three or more of the six replicates give a measured affinity, fewer mean a poor binder. The range of this assay differs from that of the first round, and the authors advise against merging the two. Of ten entries with the parent sequence, four were seen in most replicates (averages 0.34 to 2.37), three in one and three in none, so single entries are noisy.

changes | replicates, log10 nM | control signals
S25L L30W W56A | 0.35 / -0.20 / -0.19 / -0.59 / -0.18 / -0.06 | 0 of 18
Q27K R34V W56G S58Y T59L S62D | 0.54 / 1.04 / 0.34 / 0.68 / 0.70 / 0.67 | 2 of 18 (2.46)
S58G T59L S62V H98M | nd / nd / nd / 1.75 / nd / nd | 0 of 18
S26H V29W Y31N R34E S103Q | 1.34 / 1.74 / 1.26 / 1.56 / 2.30 / 2.08 | 0 of 18
S25C L30I S62A L102F | 1.39 / nd / 1.28 / nd / nd / 0.74 | 1 of 18 (0.93)
S25Y S28P S58N S62P | 1.77 / 1.78 / 0.89 / 1.72 / 1.16 / 3.75 | 1 of 18 (2.21)
Y31M W56H P101V | nd / nd / nd / nd / nd / nd | 0 of 18
Y31A W56N H98A S103Y | 1.71 / 1.16 / 1.06 / 1.11 / 0.46 / 2.71 | 0 of 18
S33N W56D | 0.02 / -0.02 / 0.02 / -0.25 / -0.02 / 0.06 | 0 of 18
W56K E61G | nd / nd / 1.64 / nd / nd / nd | 0 of 18
Q27M L30V L100E | 2.81 / nd / 2.49 / nd / 2.30 / 2.96 | 0 of 18
S26D W56G H98F | 0.10 / 0.00 / -0.08 / 0.08 / 0.00 / 0.14 | 1 of 18 (2.24)
S25R L102I | 1.51 / nd / nd / nd / nd / nd | 0 of 18
S25F V29W R34M W56D | 0.20 / -0.07 / 0.36 / -0.36 / 0.00 / 0.19 | 0 of 18
R34H N35W L100W | nd / nd / nd / nd / nd / nd | 1 of 18 (2.20)
S25M V29N L30N S33G P101V | 0.89 / 1.60 / 1.32 / 0.99 / 2.22 / 1.19 | 0 of 18
E32T E61S | nd / nd / nd / nd / 1.55 / nd | 0 of 18
Q27S Q96L | nd / nd / nd / nd / 2.69 / nd | 1 of 18 (3.44)
Q27H L30D R34S | 1.30 / 1.46 / 0.96 / 1.49 / 1.66 / 2.11 | 0 of 18
Y31M W56D Q96T | -0.01 / 0.14 / 0.44 / 0.17 / -0.09 / 0.08 | 0 of 18
S33H K36H L100S | 2.04 / 1.97 / nd / nd / 2.28 / nd | 0 of 18
N37Y W56S | nd / 2.13 / nd / 1.79 / 1.71 / 2.32 | 1 of 18 (2.74)
K24L S25L V29M E61A Q95N R99I | 0.61 / 0.39 / 0.88 / 0.49 / 0.69 / 1.11 | 0 of 18
S26A N35Y A57D | nd / nd / nd / nd / nd / nd | 1 of 18 (0.66)
R34N H98Y | 0.67 / 0.54 / 0.62 / 0.53 / 1.39 / 0.70 | 1 of 18 (2.27)
Y31Q W56E | -0.05 / -0.31 / -0.31 / -0.48 / -0.12 / -0.33 | 0 of 18
L30N R34S N35Q E61I | 1.62 / nd / nd / 1.61 / nd / 1.68 | 0 of 18
K36N | 1.50 / nd / nd / 1.88 / nd / 2.21 | 1 of 18 (2.12)
S25F Y31D K36M W56E S62T | 0.17 / -0.22 / -0.05 / -0.39 / -0.13 / 0.02 | 0 of 18
Y31M T59V R99Y L100C | nd / nd / 1.82 / nd / nd / nd | 0 of 18
W56D A57G | -0.04 / 0.11 / -0.15 / -0.30 / -0.20 / -0.02 | 1 of 18 (3.51)
S26G | nd / 2.82 / 2.94 / nd / nd / 2.88 | 2 of 18 (2.37)
S25M Q27H L30P Y31Q W56H P101L | nd / -0.72 / nd / nd / nd / nd | 0 of 18
S25F L30S W56N R99S S103W | 0.59 / 0.22 / 0.34 / 0.12 / 0.21 / 0.35 | 1 of 18 (3.69)
Q27L V29K | nd / nd / 2.21 / nd / 1.81 / 2.41 | 0 of 18
V29F W56N | 0.33 / 0.15 / 0.34 / 0.34 / 0.13 / 0.30 | 0 of 18
R34K K36T S103Q | 1.96 / nd / nd / 1.89 / nd / nd | 0 of 18
S25Q E32P T59E R99V | nd / nd / 2.33 / nd / nd / nd | 0 of 18
W56E S62P S103E | 0.66 / 0.56 / 0.32 / 0.31 / 0.43 / 0.43 | 2 of 18 (2.35)
S25L Q27G Y31N T59V | 1.30 / 1.10 / 1.25 / 1.19 / 1.63 / 1.81 | 1 of 18 (2.88)
R34V | 0.91 / 1.52 / 1.11 / 2.32 / nd / 0.63 | 2 of 18 (1.82)
Q27L T59F | nd / 2.38 / 2.26 / 1.96 / nd / 1.94 | 0 of 18
L30G N35D K36R S38C L102C | nd / nd / nd / nd / nd / nd | 0 of 18
L30P S58Q R99H S103H | nd / nd / nd / nd / nd / nd | 0 of 18

Source: Li et al. 2023 (doi:10.1038/s41467-023-39022-2), MIT Lincoln Laboratory and A-Alpha Bio; data file from the FLAb repository.